Several values for one entry are separate records, joined by “and”; a condition that tells them apart may be missing. Equal values may be shown once. The entries are a selection whose mix differs from that of the whole data set. Records with an inconclusive call do not appear. Activity calls are given as the source filed them. Calls follow the shape of the dose curve; as a rule, active = well fitted activation curve with a large enough effect; inconclusive = small, poorly fitted or top-dose-only effect; inactive = no such curve, though single readings can be large or run the other way.
biological target: Rap guanine nucleotide exchange factor 3 (Homo sapiens) (UniProt O95398); assay: Validation qHTS for agonist of cAMP-regulated guanine nucleotide exchange factor 3 (EPAC1); conditions: EPAC1 Rap1b BODIPY-GDP exchange, fluorescence; stronger effect = higher value; percent of cAMP control response; also: nearly all actives have a fitted effect of over 70% in size
Description: Assay Provider (PI): Xiaodong Cheng Ph.D.
The University of Texas Medical Branch, […], TX
In multi-cellular eukaryotic organisms, the effects of cAMP are transduced by two ubiquitously-expressed intracellular cAMP receptors, the classic protein kinase A/cAMP-dependent protein kinase (PKA/cAPK) and the more recently discovered exchange protein directly activated by cAMP/cAMP-regulated guanine nucleotide exchange factor (EPAC/cAMP-GEF). Both PKA and EPAC are ubiquitously expressed in all tissues, and an increase in intracellular cAMP levels will lead to the activation of both PKA and EPAC. Therefore, careful dissections of the individual role and relative contribution of EPAC and PKA within the overall cAMP signaling in various model systems are critical for further elucidating the mechanism of cAMP signaling. To date no EPAC-specific antagonists and agonist, as well as isoform-specific agonists have been reported, and developing EPAC-specific pharmacological probes to determine the physiological functions that EPAC play in the overall cAMP-mediated signaling remains a major challenge within the research field. […]
This qHTS will be used to screen the Molecular Libraries Small Molecule Repository (MLSMR) as a concentration-titration series using the NCGC unique quantitative screening (qHTS) platform to find activators for EPAC1. […] Activators are identified by monitoring the change in fluorescence signal as the exchanged free BODIPY-GDP has a reduced fluorescence compared to Rap1-bound BODIPY-GDP. […]
Briefly, three uL of reagents (100 nM EPAC1, 250 nM RAP1B-BODIPY-GDP, 50 uM GDP) were dispensed into a 1536-well Greiner black solid-bottom medium binding assay plate. […] The assay plates were read at 5 minute intervals for 30 minutes in the ViewLux plate reader using 480nm excitation and 540nm emission filters. […]
% is scaled to controls: 0 for no effect and ±100 for the full control effect.

The chains behind the UniProt entries cited, without tags or fusion partners.
UniProt O95398, whole entry: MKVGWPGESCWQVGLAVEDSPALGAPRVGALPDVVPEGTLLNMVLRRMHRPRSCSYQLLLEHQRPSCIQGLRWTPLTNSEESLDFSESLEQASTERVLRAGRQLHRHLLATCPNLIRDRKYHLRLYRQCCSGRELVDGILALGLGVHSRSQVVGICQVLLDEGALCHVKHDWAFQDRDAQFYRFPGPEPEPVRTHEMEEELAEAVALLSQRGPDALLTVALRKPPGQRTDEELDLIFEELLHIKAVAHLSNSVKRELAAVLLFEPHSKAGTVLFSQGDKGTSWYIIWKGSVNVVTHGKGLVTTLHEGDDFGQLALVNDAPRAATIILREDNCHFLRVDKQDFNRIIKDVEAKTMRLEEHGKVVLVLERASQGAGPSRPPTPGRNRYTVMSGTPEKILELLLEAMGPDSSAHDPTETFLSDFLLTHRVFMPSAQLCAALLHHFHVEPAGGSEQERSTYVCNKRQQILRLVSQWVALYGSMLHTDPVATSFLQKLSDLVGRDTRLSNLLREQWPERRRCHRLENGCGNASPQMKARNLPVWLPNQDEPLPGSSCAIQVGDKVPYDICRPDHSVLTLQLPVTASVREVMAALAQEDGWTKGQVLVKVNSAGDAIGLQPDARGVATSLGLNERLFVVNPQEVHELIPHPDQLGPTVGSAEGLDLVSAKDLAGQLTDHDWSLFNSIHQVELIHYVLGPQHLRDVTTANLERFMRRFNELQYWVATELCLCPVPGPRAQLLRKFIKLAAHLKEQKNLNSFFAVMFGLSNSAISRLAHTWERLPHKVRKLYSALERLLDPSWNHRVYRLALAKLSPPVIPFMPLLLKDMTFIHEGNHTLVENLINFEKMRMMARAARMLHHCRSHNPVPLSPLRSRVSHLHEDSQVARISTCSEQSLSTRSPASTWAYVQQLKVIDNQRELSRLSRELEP

Structure (SMILES) | max response
CCC(=O)N(c1ccccc1)C1(COC)CCN(CCc2cccs2)CC1 | inactive: 8.23%
CCC(=O)N(c1ccccc1)C1(COC)CCN(CCn2nnn(CC)c2=O)CC1 | inactive: 12.1%
CN(CCCl)CCCl | inactive: -7.72% and inactive: 20.7%

Source: PubChem BioAssay AID1645883 (National Center for Advancing Translational Sciences (NCATS), 2021)
